## scFv variants of Ab-95 (light chain) against a SARS-CoV-2 spike peptide

Binding partner: SARS-CoV-2 spike HR2 peptide, sequence PDVDLGDISGINAS.

Each scFv is VH, a 15-residue (Gly4Ser)3 linker, VL, as in the parent Ab-95, and differs from it in the CDRs of the light chain only.
VH: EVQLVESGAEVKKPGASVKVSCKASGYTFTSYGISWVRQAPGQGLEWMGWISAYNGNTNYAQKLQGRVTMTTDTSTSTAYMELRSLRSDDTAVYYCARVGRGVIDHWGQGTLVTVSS
VL: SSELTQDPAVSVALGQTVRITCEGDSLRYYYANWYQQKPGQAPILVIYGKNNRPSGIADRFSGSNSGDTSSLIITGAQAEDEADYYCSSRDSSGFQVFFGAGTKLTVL

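In library AAYL52, one, two or three CDR residues were substituted; doubles and triples were drawn at random. AlphaSeq pools MATa yeast showing the antibodies with MATalpha yeast showing the peptide. Pairs that bind mate more often; barcode pairs of the diploids are counted by sequencing. Scores were corrected for input abundance and mapped to Kd with protein pairs of known affinity run in the same pool. Each pool was mated in three replicate cultures.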

Positions count from residue 1 of the parent VL; L27R puts R in place of L. Values are log10 of the apparent Kd in nM; lower means stronger binding. Where no diploid with the target was found in that replicate, the entry reads "nd": below detection, most likely a poor binder, though not proof of it.

| # | changes | log10 Kd (nM) by replicate | signal with controls |
|---|---|---|---|
| 1 | L27R/K50H | 3.81 2.87 3.56 | 3 of 9 (3.48) |
| 2 | Y31Q/D91S/F98P | 2.02 1.87 2.01 | 3 of 9 (3.44) |
| 3 | E23K/S89P | 4.38 4.75 nd | 2 of 9 (3.95) |
| 4 | E23G/N52A/Q96G | 2.86 2.10 2.75 | 3 of 9 (3.97) |
| 5 | D25V/P54C/S89F | 3.08 nd nd | 1 of 9 (4.42) |
| 6 | D25L/Y29E/Y30W | 3.40 3.35 3.49 | 2 of 9 (4.21) |
| 7 | N33G/D91G/S92P | nd nd nd | 4 of 9 (4.19) |
| 8 | R28H/R53W/R90E | 3.70 nd nd | 1 of 9 (3.54) |
| 9 | Y31D/F98S | 1.59 1.56 0.79 | 2 of 9 (4.64) |
| 10 | Y30A/S55C/Q96G | 3.26 3.12 3.44 | 2 of 9 (3.45) |
| 11 | D25R/K50H/P54W | 3.19 2.91 3.21 | 0 of 9 |
| 12 | K50E/S89Q/G94H | 4.02 nd nd | 1 of 9 (4.28) |
| 13 | A32F/N51R | nd nd nd | 0 of 9 |
| 14 | D25K/R28E/N52F | 2.83 2.58 2.28 | 1 of 9 (3.95) |
| 15 | G24D/L27G/S92V | 2.41 2.86 2.32 | 4 of 9 (3.82) |
| 16 | Y30S/S92N/V97F | 1.55 1.66 0.58 | 5 of 9 (4.06) |
| 17 | S26R/Q96D/F98A | 2.92 2.93 3.16 | 2 of 9 (3.48) |
| 18 | G49W/K50F/N51H | nd nd nd | 5 of 9 (4.03) |
| 19 | E23K/Y30P/F98L | 2.72 2.89 1.94 | 2 of 9 (3.77) |
| 20 | L27I/G49M/V97K | nd nd nd | 0 of 9 |
| 21 | K50G/S89I/D91K | 2.68 2.52 1.77 | 0 of 9 |
| 22 | N33W/G49V/P54F | 3.60 nd nd | 2 of 9 (3.91) |
| 23 | R28Y/S88W/Q96S | 5.14 nd 3.67 | 1 of 9 (4.87) |
| 24 | E23L/N33C/S89N | nd 5.66 3.86 | 3 of 9 (4.28) |
| 25 | G94E/V97H | 2.85 4.19 3.25 | 1 of 9 (3.46) |
| 26 | N51I/R90K/V97P | nd nd nd | 0 of 9 |
| 27 | L27C/D91F/V97E | nd nd nd | 1 of 9 (2.94) |
| 28 | R53E/S92H/G94F | 3.83 nd nd | 2 of 9 (3.20) |
| 29 | E23Y/R28I/N33W | 5.16 nd nd | 1 of 9 (3.00) |
| 30 | N52W/R90Q/S93I | 1.91 1.76 0.80 | 6 of 9 (3.88) |
| 31 | A32K/R90V/D91A | 4.35 4.32 nd | 6 of 9 (3.93) |
| 32 | G49M/P54C/F95A | nd nd nd | 1 of 9 (4.48) |
| 33 | G24H/N51P/R90S | 4.40 nd nd | 2 of 9 (3.24) |
| 34 | R53L/P54N/D91T | 3.74 4.25 4.61 | 2 of 9 (3.63) |
| 35 | E23K/D25G/R28F | 2.86 2.94 3.17 | 2 of 9 (4.27) |
| 36 | S26R/D91S/S93H | nd 3.60 3.76 | 1 of 9 (3.65) |
| 37 | R28L/A32Q/K50V | nd nd nd | 1 of 9 (3.15) |
| 38 | E23A/P54Q/D91E | nd nd nd | 2 of 9 (3.62) |
| 39 | E23P/R28P/S89Q | 4.05 3.75 4.28 | 0 of 9 |
| 40 | K50P/P54T/S55L | 2.68 3.96 4.56 | 4 of 9 (4.03) |
| 41 | S26L/R28A/A32I | 3.05 2.52 1.53 | 3 of 9 (4.50) |
| 42 | N33V/S88W/S92W | nd nd nd | 0 of 9 |
| 43 | S55C/F98I | 2.93 nd nd | 0 of 9 |
| 44 | S26Y/G49N/F95I | nd nd nd | 3 of 9 (3.45) |
| 45 | D91W/S93C/Q96N | 2.96 3.58 nd | 1 of 9 (3.15) |

3 of these entries, quoted again:

| changes | log10 Kd (nM) by replicate | signal with controls |
|---|---|---|
| G49W/K50F/N51H | nd nd nd | 5 of 9 (4.03) |
| D91W/S93C/Q96N | 2.96 3.58 nd | 1 of 9 (3.15) |
| E23L/N33C/S89N | nd 5.66 3.86 | 3 of 9 (4.28) |

Empty control strains, which show no peptide, gave a signal in 28% of pairings with library AAYL52; the median was 3.91 and 95% of these signals were weaker than 2.90. No background was subtracted. Also given: how often the same scFv was detected with the empty control strains, with their mean in brackets.

From the AlphaSeq antibody data of Engelhart et al. 2022 (doi:10.1038/s41597-022-01779-4), copy in the FLAb collection.